Experimental data taken from paper PMC5454392, “Selective BET bromodomain inhibition as an antifungal therapeutic strategy” (Nature Communications, 2017).

Biological target: T1, CaBdf1 BD1 (Candida albicans, UniProt Q5A4W8)
T1 construct: made in house; host or cells: E. coli BL21(DE3)
T1 sequence (Q5A4W8 whole entry, looked up): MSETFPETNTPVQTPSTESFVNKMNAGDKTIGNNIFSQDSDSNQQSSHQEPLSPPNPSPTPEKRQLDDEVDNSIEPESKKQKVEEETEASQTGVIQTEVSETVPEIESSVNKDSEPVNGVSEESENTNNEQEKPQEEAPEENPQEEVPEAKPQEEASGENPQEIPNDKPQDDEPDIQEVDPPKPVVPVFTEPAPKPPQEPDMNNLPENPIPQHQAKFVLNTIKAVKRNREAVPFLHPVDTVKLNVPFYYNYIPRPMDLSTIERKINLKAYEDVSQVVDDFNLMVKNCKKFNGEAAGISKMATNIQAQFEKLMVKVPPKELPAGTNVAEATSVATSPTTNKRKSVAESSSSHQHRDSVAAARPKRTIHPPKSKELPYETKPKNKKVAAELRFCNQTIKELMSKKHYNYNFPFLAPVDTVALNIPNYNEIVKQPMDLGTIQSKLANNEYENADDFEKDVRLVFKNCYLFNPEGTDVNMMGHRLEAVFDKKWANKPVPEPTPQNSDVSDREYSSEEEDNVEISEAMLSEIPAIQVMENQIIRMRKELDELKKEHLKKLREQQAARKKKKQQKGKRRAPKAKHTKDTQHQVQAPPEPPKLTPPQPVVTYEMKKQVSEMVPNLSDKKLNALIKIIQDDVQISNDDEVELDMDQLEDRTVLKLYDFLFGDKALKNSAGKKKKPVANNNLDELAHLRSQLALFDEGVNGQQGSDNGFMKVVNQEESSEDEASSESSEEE
Type: binding
Details: normalized array signal; wild-type BD1
Description: In short, arrays were blocked and incubated with 1 μM of purified CaBdf1 BD1 or BD2. Arrays were incubated with recombinant BDs for 2 h at 4 °C in binding buffer (Tris-HCl 50 mM pH 7.4, NP-40 0.1%, NaCl 150 mM, glycerol 10%). […] Assays were performed in duplicate.
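Further: normalized to spotted c-myc peptide positive control signal.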

Sequence	CaBdf1 BD1 Normalized (0 to 100%) WT [%]
A Rme2a T Kac Q T A Rme2a K S T G G K A P R K Q	0.399
A R T K Q T A R K S pT G G Kac A P R K Q	2
